# From PubChem
# miR-21 FLuc: miR-21 reporter, rising signal | AID 2288 | HeLa miR-21 FLuc reporter, luciferase, 48 h | 340,000 tested, under 10 active | Potency, µM (titrated, usually from 38.3 µM); active = well fitted rising curve with a large enough effect; inconclusive = small, poorly fitted or top-dose-only effect; inactive = no such curve, though single readings can be large or run the other way;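 also: miR-21 action dims this reporter so a rising signal means less miR-21 action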
#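 HeLa cells stably expressing CMV-driven firefly luciferase with a downstream miR-21 binding sequence, endogenously expressing miR-21, were treated with titrations (up to about 40uM final) for 48 hours at 37 degree Celsius. Luciferase luminescence was read after lysis.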
# DT40 TDP1 CPT: growth inhibition of DT40 Tdp1-/-;hTDP1 cells with camptothecin (screen for TDP1 inhibitors). chicken DT40 Tdp1-/-;hTDP1 cells + 20 nM CPT, ATP luminescence, 48 h. Potency, µM (series often up to 46.2 µM), actives largely listed as inhibitors. 420,000 tested, 12% active. AID 686979; further: nearly all actives have a fitted effect of over 55% in size
#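 Chicken DT40 Tdp1-/- cells complemented with human TDP1, 400 cells/well, exposed to compounds plus 20 nM camptothecin for at least 48 h at 37 C; viability read as ATP content by CellTiter-Glo luminescence.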
# uPA surface inh: cell surface uPA generation inhibition. cell surface uPA generation assay, qHTS. Potency, µM (highest dose often 38.3 µM), usual class: inhibitors. 330,000 tested, 0.31% active; active means well fitted inhibition curve with a large enough effect; inconclusive means small, poorly fitted or top-dose-only effect; inactive means no such curve, though single readings can be large or run the other way; tested in mouse RAW 264.7 cells; further: nearly all actives have a fitted effect of over 55% in size
# DT40 TDP1 no CPT: qHTS for Inhibitors of human tyrosyl-DNA phosphodiesterase 1 (TDP1): qHTS in cells in absence of CPT; DT40 Tdp1-/- hTDP1 cells, no CPT, ATP luminescence, 48 h; Potency, µM (highest dose often 46.2 µM), usual class: inhibitors; 420,000 tested, 15% active; further: nearly all actives have a fitted effect of over 55% in size
#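 Chicken DT40 Tdp1-/- cells stably complemented with human TDP1 were seeded at 400 cells/well with DMSO in place of 20 nM camptothecin. After compound pinning, cells grew at least 48 hr at 37 °C; viability read by CellTiter-Glo luminescence.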
# TDP1 inh: inhibitors of human tyrosyl-DNA phosphodiesterase TDP1 | Potency, µM (top dose mostly 130 µM), most hits filed as inhibitors | Q9NUW8 | 350,000 tested, 0.28% active | recombinant TDP1, AlphaScreen DNA substrate cleavage; further: nearly all actives have a fitted effect of over 40% in size
#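 Enzyme-compound mixtures sat 15 min at room temperature, followed by a 5 min reaction with 15 nM final substrate and 10 min with AlphaScreen beads. Recombinant human Tdp1 was used at 1 nM final.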
# A number is an active result; i = inactive; ? = inconclusive; nt = not tested or not shown; ! = not confirmed by another sample; [ ] = remark or other dose. In the library only some 16% were active in any assay of this set; here they are far more common. Unless noted, the call rests on the fitted dose curve; in most records, active means well fitted curve in the direction sought with a large enough effect; inconclusive means small, poorly fitted or top-dose-only effect, or another doubt; inactive means no such curve, though single readings can be large; an effect the other way counts as inactive or inconclusive.
SMILES,miR-21 FLuc,DT40 TDP1 CPT,uPA surface inh,DT40 TDP1 no CPT,TDP1 inh
CN1CCCN(C(=O)C2CCC(C(=O)N3CCCN(C)CC3)CC2)CC1 (stereo not given),i,i,i,i,i
Cc1cccc(N2CCN(c3ccc4cc(S(=O)(=O)N5CCC(C)CC5)ccc4n3)CC2C)c1 (stereo not given),i,i,nt,i,i
Cc1ccc2c(c1)CN1CN2Cc2cc(C)ccc21,i,i,i,i,i
COCCOC(=O)c1c(C)oc2ccc(O)c(CN3CCC(C)CC3)c12,i,i,i,i,i
Cc1ccccc1NC(=O)c1c(C)oc2ccc(O)c(CN3CCCC(C)C3)c12 (stereo not given),i,10µM,nt,21µM,i
Cc1ccccc1NC(=O)c1c(C)oc2ccc(O)c(CN3CCC(C)CC3)c12,i,16µM,nt,23µM,i
COc1ccc(OCCOC(=O)CN2C(=O)NC3(CCCC3)C2=O)cc1,nt,?,?,i,nt
CCCOc1ccc([N+](=O)[O-])cc1C1NC(=S)NC(c2ccccc2)=C1C(=O)OCC (stereo not given),i,?,i,21µM,i
CCOC(=O)C1=C(c2ccccc2)NC(=O)NC1c1cc(OC)c(O)c([N+](=O)[O-])c1 (stereo not given),i,i,i,?,nt
CCC1NC(=O)c2cccnc2-n2c1nc1cc(F)ccc1c2=O (stereo not given),nt,i,nt,i,nt
COc1ccccc1C(=O)NCCC(=O)N1CCN(c2ccccc2Cl)CC1,nt,?,i,?,nt
Cc1cc(C)c(C(=O)COC(=O)C2CCN(c3ccc(C(F)(F)F)cn3)CC2)cc1C,nt,?,i,?,nt
COc1cccc(C(=O)NCC(=O)N2CCC(C)CC2)c1,i,i,i,i,i
COc1ccccc1C(=O)NCCC(=O)N1CCN(c2ccc(C(F)(F)F)cn2)CC1,nt,23µM,i,21µM,i
COc1cccc(C(=O)NCC(=O)N2CCN(c3ccc(C(F)(F)F)cn3)CC2)c1,nt,7.3µM,i,4.1µM,i
COc1ccc(C(=O)COC(=O)C2CCN(c3ccc(C(F)(F)F)cn3)CC2)c(OC)c1,nt,?,i,21µM,i
CCOc1ccc(-c2ncncc2-c2ccc(OC)c(OC)c2)c(O)c1,i,?,i,i,nt
CCC(C)(C)c1ccc(OC(=O)c2cccnc2Cl)cc1,i,?,i,?,nt
CC(C(=O)NC1CCCc2ccccc21)N1CCN(c2ccc(F)cc2)CC1 (stereo not given),i,?,i,16µM,i
CC(C(=O)NC1CCCc2ccccc21)N1CCN(Cc2ccc3c(c2)OCO3)CC1 (stereo not given),i,?,i,?,i
Cc1onc(-c2ccccc2Cl)c1C(=O)Oc1ccc(Br)cc1,i,i,nt,i,i[12.3 µM]
Oc1ccccc1Nc1nc(NCC2CCCO2)c2ccccc2n1 (stereo not given),i,16µM,i,26µM,i
Cc1ccc(S(=O)(=O)Nc2nc3ccccc3nc2NCC2CCCO2)cc1C (stereo not given),i,21µM,i,?,i
COc1cccc(Nc2nc(NCCO)c3ccccc3n2)c1,i,4.6µM,i,21µM,i
COc1cccc(Nc2nc(NCC3CCCO3)c3ccccc3n2)c1 (stereo not given),i,6.5µM,i,5.2µM,i
SMILES,miR-21 FLuc,DT40 TDP1 CPT,uPA surface inh,DT40 TDP1 no CPT,TDP1 inh
Oc1ccc(Cl)cc1Nc1nc(NCC2CCCO2)c2ccccc2n1 (stereo not given),nt,nt,i,nt,nt
Cc1cccc(S(=O)(=O)Nc2nc3ccccc3nc2NCC2CCCO2)c1 (stereo not given),i,i,i,i,i
O=C(CCC1CCCN(C(=O)C2=CCCCC2)C1)N1CCN(c2ccccn2)CC1 (stereo not given),i,i,i,?,nt
COCCn1c(NCc2ccc(C)cc2)nc2c1c(=O)[nH]c(=O)n2C,i,i,i,i,i
COCc1c(C(=O)N2CCCCCC2)cnn1-c1nccc(-c2cccs2)n1,nt,i,nt,i,nt
O=C(NCc1ccccn1)[C@@H]1CCCN1C(=O)[C@@H]1CCCN1,nt,i,nt,i,nt
Oc1ccc(Nc2nc(NCC3CCCO3)c3ccccc3n2)cc1 (stereo not given),i,23µM,i,16µM,i
Cc1ccc2c(c1)N(C(=O)CSc1nncn1C)C(C)(C)c1ssc(=S)c1-2,i,26µM,i,?,i
Cc1ccc2c(c1)N(C(=O)c1ccco1)C(C)(C)c1ssc(=S)c1-2,i,i,nt,?,i
Cc1cc2c(cc1C)N(C(=O)CSc1nncn1C)C(C)(C)c1ssc(=S)c1-2,i,29µM,i,?,i
CCCCn1c(N)c(N(CCC(C)C)C(=O)C2CC(=O)N(CCc3ccc(OC)c(OC)c3)C2)c(=O)[nH]c1=O (stereo not given),nt,i,i,i,i
O=C(Cc1ccc(NC(=O)N2CCSc3ncccc32)cc1)NCc1ccccc1,i,?,nt,?,i
CCOc1ccc(CNC(=O)Cc2ccc(NC(=O)N3CCSc4ncccc43)cc2)cc1,i,16µM,nt,16µM,i
CCc1ccc(CNC(=O)Cc2ccc(NC(=O)N3CCSc4ncccc43)cc2)cc1,i,26µM,nt,23µM,i
CCc1ccc(CNC(=O)Cc2ccc(NC(=O)C3=C(C)OCCS3)cc2)cc1,i,1.2µM,i,1.3µM,i
O=C(Cc1ccc(NC(=O)N2CCSc3ncccc32)cc1)NCc1cccc(Cl)c1,i,?,nt,21µM,i
O=C(NC(=O)c1c(F)cccc1F)Nc1ccccc1SC(F)F,i,?,i,?,i
CC(=O)Nc1ccc(C(=O)OCC(=O)c2ccc(C)c([N+](=O)[O-])c2)cc1,i,i,i,i,i
O=C(NCCCN1CCCC1=O)c1cccc(S(=O)(=O)N2CCN(c3ccccc3)CC2)c1,i,i,i,i,i
CCOc1ccccc1CNC(=O)c1ccc(NC(=O)N2CCSc3ncccc32)cc1,i,21µM,nt,15µM,i
CCOc1ccc(NC(=O)c2ccc(NC(=O)N3CCSc4ncccc43)cc2)cc1,i,i,nt,i,i
CCOc1ccccc1CNC(=O)c1ccc(NC(=O)C2=CSCCO2)cc1,i,?,i,23µM,i
C#CCN(C(=O)c1ccc(OC2CCN(Cc3ccccn3)CC2)cc1)C1CCCCC1,i,16µM,i,?,i
C#CCN(C(=O)c1ccc(OC2CCN(C(=O)CCOC)CC2)cc1)C1CCCCC1,i,23µM,i,?,nt
O=C(c1cc(-c2ccc(O)cc2)on1)N1CCN(c2ccccc2)CC1,i,18µM!,i,?,i
O=C(c1cc(-c2ccc(O)cc2)on1)N1CCN(c2ccc(F)cc2)CC1,i,21µM,i,?,nt
Cc1ccc(NC(=O)COC(=O)C2=NNC(=O)CC2)c(Br)c1,nt,i,i,i,i
Cc1ccc(C(=O)N(CC(=O)Nc2sc(C)c(C)c2C(N)=O)C2CCCC2)cc1,i,21µM,i,18µM,i
